# Only a part of the results on these compounds is given; other tests are left out.
# The chains behind the UniProt entries cited, without tags or fusion partners.
# UniProt P19327, whole entry: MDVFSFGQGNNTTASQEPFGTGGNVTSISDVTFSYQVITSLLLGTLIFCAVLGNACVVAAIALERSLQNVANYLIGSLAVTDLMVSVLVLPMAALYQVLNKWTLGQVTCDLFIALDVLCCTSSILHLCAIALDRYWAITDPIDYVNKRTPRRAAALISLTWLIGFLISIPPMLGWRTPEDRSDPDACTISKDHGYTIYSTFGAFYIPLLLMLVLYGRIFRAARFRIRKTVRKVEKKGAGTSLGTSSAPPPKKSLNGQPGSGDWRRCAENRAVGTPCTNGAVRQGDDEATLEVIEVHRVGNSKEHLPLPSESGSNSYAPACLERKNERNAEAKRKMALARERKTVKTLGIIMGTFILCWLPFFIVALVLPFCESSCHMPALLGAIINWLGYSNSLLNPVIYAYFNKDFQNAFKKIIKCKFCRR
# Biological target: 5-hydroxytryptamine receptor 1A (Rattus norvegicus, UniProt P19327)
# Settings: Hippocampus
smiles,measurement,value
COc1ccccc1N(C(=O)C1CCCCC1)C1CCN(CCN(C(=O)C2CCCCC2)c2ccccn2)CC1,IC50,500 nM

# Reference: ChEMBL document CHEMBL1133581, “Synthesis and in vitro and in vivo functional studies of ortho-substituted phenylpiperazine and N-substituted 4-N-(o-methoxyphenyl)aminopiperidine analogues of WAY100635” (J Med Chem, 2000)
